Values of other authors as cited in patent US8609661B2, “Pyrimido-pyrrolo-quinoxalinedione inhibitors of cystic fibrosis transmembrane conductance regulator protein and uses therefor” (The Regents of the University of California, priority 2009, dated 2013).
pIC50: −log10 of the molar value.

Chains of the proteins cited; added tags and fusions are not shown.
UniProt P13569, whole entry, species assumed: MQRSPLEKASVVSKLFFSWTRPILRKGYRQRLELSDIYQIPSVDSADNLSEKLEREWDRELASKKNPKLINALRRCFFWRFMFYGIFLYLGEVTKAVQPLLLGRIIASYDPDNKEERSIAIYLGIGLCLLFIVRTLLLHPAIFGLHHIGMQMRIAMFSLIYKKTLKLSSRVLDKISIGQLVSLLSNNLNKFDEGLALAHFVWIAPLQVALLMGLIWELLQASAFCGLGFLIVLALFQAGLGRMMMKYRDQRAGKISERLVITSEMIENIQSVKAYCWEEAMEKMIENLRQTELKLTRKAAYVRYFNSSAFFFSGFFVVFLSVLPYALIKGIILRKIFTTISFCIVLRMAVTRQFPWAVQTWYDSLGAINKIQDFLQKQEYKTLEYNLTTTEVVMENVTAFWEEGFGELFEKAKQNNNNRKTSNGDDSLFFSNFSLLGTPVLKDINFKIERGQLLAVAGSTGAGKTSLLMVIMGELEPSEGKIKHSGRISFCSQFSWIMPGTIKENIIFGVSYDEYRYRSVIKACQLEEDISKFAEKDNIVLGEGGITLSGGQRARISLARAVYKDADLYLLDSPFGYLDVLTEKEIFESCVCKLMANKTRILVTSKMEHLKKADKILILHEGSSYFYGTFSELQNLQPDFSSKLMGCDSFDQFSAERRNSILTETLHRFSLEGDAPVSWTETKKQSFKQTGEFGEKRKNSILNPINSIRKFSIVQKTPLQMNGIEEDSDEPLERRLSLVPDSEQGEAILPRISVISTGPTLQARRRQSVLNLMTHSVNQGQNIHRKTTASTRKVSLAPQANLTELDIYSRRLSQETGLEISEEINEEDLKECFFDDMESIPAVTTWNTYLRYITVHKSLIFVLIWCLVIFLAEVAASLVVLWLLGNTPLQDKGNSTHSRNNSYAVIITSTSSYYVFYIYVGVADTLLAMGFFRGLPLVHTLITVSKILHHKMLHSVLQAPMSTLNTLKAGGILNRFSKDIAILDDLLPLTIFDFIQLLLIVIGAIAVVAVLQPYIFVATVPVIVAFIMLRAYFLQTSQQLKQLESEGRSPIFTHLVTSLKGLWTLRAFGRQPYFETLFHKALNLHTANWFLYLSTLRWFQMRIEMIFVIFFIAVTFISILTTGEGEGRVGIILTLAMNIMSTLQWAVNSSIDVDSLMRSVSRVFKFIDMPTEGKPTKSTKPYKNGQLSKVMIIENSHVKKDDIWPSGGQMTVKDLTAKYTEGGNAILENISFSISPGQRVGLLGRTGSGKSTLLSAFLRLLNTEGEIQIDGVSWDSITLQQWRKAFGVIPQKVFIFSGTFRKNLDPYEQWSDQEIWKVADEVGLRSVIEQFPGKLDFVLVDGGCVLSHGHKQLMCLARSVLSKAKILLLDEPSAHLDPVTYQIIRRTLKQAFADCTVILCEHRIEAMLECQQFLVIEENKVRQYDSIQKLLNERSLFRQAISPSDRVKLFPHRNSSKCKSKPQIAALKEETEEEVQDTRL

Molecular target: CFTR (Homo sapiens, UniProt P13569)
Details: literature; depending on cell type and membrane potential; read-out: IC50 for CFTR chloride conductance block; cited from earlier work

Substance: CFTRinh-172
- pIC50: 5.52 to 6.52
